Experiments:
[1] = tested on: MC3T3-E1 cells; assay: Alkaline phosphatase (ALP) activity of osteoblasts; format: cell-based; settings: positive control BMP2 100 ng/ml, 7 days, relative to negative control (100)
Protocol: After removing the medium, α-MEM supplemented with β-glycerophosphate and ascorbic acid were added thereto as a differentiation-inducing agent for osteoblasts. Each compound of Example 1 was added to the culture medium in the final concentration of 5 μg/ml. The plate containing the cells was cultured for 7 days. 100 μl of a cell lysis buffer (Sigma, Catalog number: MCL1) was added to the cells, which were then incubated at 37° C. for 30 minutes. The resulting mixture (50 μl) was reacted with p-nitrophenyl phosphate as a substrate in a 0.1N glycine-NaOH buffer (pH 9.8), at 37° C. for 30 minutes. Each amount of p-nitrophenol released from the substrate was quantified by measuring an absorbance at 405 nm using an ELISA reader (Bio-Tek instrument). A positive control was treated with BMP2 in the concentration of 100 ng/ml. The alkaline phosphatase activities were calculated by obtaining relative absorbance differences through comparing with a negative control (no treatment).

[2] = tested on: MC3T3-E1 cells; assay: In-vitro bone nodules of osteoblasts (calcium accumulation); format: cell-based; settings: positive control BMP2 100 ng/ml, 27 days, relative to negative control (100)
Protocol: MC3T3-E1 cells (RIKEN Cell Bank, Japan) (2×10^3 cells per well) as an osteoblast cell line were placed on each well of a 24-well plate and then cultured for 24 hours. The medium was changed with α-MEM supplemented with β-glycerophosphate and ascorbic acid as a differentiation-inducing agent for osteoblasts. Each compound of Example 1 was added to the culture medium in the final concentration of 5 μg/ml. The plate containing the cells was cultured for 27 days while changing the medium every three days or every four days. A positive control was treated with BMP2 in the concentration of 100 ng/ml. No treatment was made to the negative control. In order to quantify the amount of calcium accumulated in the cells, the cells were washed with a biological saline, and then calcium (Ca) was extracted with a 0.5N HCl solution for 6 hours on an agitator. The extracted solution (100 μl) was reacted with a Calcium Reagent (Sigma, USA) at room temperature for 5 minutes. […] The amount of calcium accumulated in the cells was calculated by obtaining relative absorbance differences through comparing with a negative control (no treatment).

[3] = tested on: mandiblar molars transplanted into the kidney of female mouse (C57BL/6); assay: Alveolar bone formation activity, compound-soaked collagen bead in mandiblar molar transplanted into mouse kidney; format: in vivo; settings: collagen bead dipped in 1 mg/ml solution (1-2 μg compound), after 3 weeks, stained area vs negative control (100%)
Protocol: Each compound of Example 1 was dissolved in a sterile biological saline to obtain a solution having a concentration of 1 mg/ml. Collagen bead (diameter: 1×2 mm, Gibco) used as a bone-grafting material was dipped into each solution at 37° C. for 45 minutes. Each resulting wet bead includes about 1-2 μl of the solution, and therefore 1-2 μg of each compound. Mandiblar molars before tooth-root formation were isolated from mice. The wet bead was inserted in the center of dental pulp of each isolated mandiblar molar, using tweezers. The resulting mandiblar molars were transplanted into the kidney of female mouse (C57BL/6). After 3 weeks, the growing molar teeth were fixed with a formalin solution and then stained with a Morse's solution. The stained sites were visualized under a microscope (Olympus IX71) and then the area was measured with an imageWarp software (London, England). The effects of the compounds on alveolar bone formation were evaluated by comparing with the negative control (100%).

**Q.** Which “Alkaline phosphatase activity of osteoblasts (%)” value [1] does the source give for “BMP2: bone morphogenic protein used as positive control; approved fracture-treating agent, bone-grafting material and bone-filler” here?
**A.** Its value is 150%.

**Q.** What about the “Calcium accumulation (%)” value [2] of the same substance?
**A.** Its value is 160%.

**Q.** What about the “Alveolar bone formation (%)” value [3] of the same substance?
**A.** The value was 120%.
